For this test, the target named is human HSP90α (Homo sapiens, UniProt P07900). As to the kind of experiment: biochemical.

For one compound, Kd results are on record in patent US20150374680A1, “POCHOXIME CONJUGATES USEFUL FOR THE TREATMENT OF HSP90 RELATED PATHOLOGIES” (UNIVERSITE DE STRASBOURG, priority 2010, published 2015).

pKd: −log10 of the molar value.

For orientation: pKd means −log10 of the Kd, conventionally taken in molar units. With `CC1CC=CC(NC(=O)CSC2OC(CO)C(O)C(O)C2O)CC=CC(=NOCC(=O)N2CCCCC2)Cc2cc(O)cc(O)c2C(=O)O1` (stereo not shown) [As-14(6-S)], the pKd is 7.49.
